Columns and labels:
Type in all cases: cell-based
[1] = system: BT474 [HER-2+ (amplified); ATCC HTB-20] cells; assay: SRB cell survival / growth inhibition, BT474 cells
Protocol: (§1) The combination was tested in three breast cancer cell lines of differing genotypes.
(§2) Cells from each of these cell lines were incubated in the presence of a range of concentrations ([…]) for each drug. […] Compound dilutions were prepared in the same medium, at 2× final concentration, and 100 μl of the drug dilution was added to the cell-containing wells.
(§3) Serial dilutions of one compound were prepared in the presence of a fixed dose of a second compound. Alternatively, a checkerboard dilution series was employed. Cells were cultured for three days in the presence of the drugs. Untreated cells were included as controls. The percentage of surviving cells was determined using sulforhodamine B (SRB, Sigma-Aldrich, St Louis, Mo.), a protein binding dye. Cellular protein was precipitated in each well by the addition of 50 μl 50% cold trichloroacetic acid. After 1 hour, the plates were washed extensively in water and dried. SRB dye reagent (0.4% SRB in 1% acetic acid, 80 μl per well) was added and plates were kept at room temperature for ten minutes. […] Cell-associated dye was dissolved in 10 mM Tris (150 μl) and the absorbance was read at 540 nm in a microtiter plate reader. The concentration of compound that caused a fixed percentage inhibition of growth was determined by plotting cell survival (relative to untreated cells) against the compound dose.

[2] = system: MDA-MB-361 [HER-2+ (non-amplified); adenocarcinoma; ATCC HTB 27] cells; assay: SRB cell survival / growth inhibition, MDA-MB-361 cells; conditions: MDA-MB-361, lower levels of HER-2 without amplification
Protocol: as §1, §2, §3

[3] = system: MCF-7 [HER-2−, EGFR−; adenocarcinoma; ATCC HTB22] cells; assay: SRB cell survival / growth inhibition, MCF-7 cells; conditions: MCF-7, no HER-2
Protocol: as §1, §2, §3

## trastuzumab: FDA-approved therapeutic monoclonal antibody for HER2 protein overexpressing metastatic breast cancer
[1]
  sensitivity of the cell line to the single agent: highly sensitive
[2]
  sensitivity of the cell line to the single agent: less sensitive
[3]
  sensitivity of the cell line to the single agent: resistant

— patent US10729672B2, “Antineoplastic combinations with mTOR inhibitor, trastuzumab and/or HKI-272” (Wyeth LLC, priority 2005, dated 2020)
